These results are taken from US20130012466A1 (priority 2006, published 2013).

Molecules are shown by their SMILES.

The subject of this series is Du145. The series can be described thus: Cytotoxicity assay (cell titer-glo and calcein AM), Du145. Particulars: read-out: Cytotoxicity IC50, Du145, CTG, CTG (cell titer-glo) readout, % error in parentheses.

With `COc1cc2c(c(OC)c1OC)-c1ccc(OC)c(=O)cc1[C@@H](NC(=O)CN(OC)[C@@H]1O[C@H](CO)[C@@H](O)[C@H](O)[C@H]1F)CC2` [Col34, 2-fluoro-2-deoxy-D-glucoside], the IC50 (commonly the concentration that gives 50% inhibition) was 142 nM.
